# Experimental data from publication PMC7144380 (Molecules, 2020).
# Target: κ-opioid receptor (KOR), guinea pig (Cavia porcellus, UniProt P41144)
# Experiment: [3H]U-69593 competition, guinea pig brain membranes
# Conditions: read-out: Ki ± S.E.M. (nM) / [^3H]U-69593 (κ) ^2; 50 mM Tris-HCl pH 7.4, 30 °C, 30 min; homologous competition
structure (smiles),measurement,value
CN(C(=O)Cc1ccccc1)[C@H]1CC[C@@]2(CCCO2)C[C@@H]1N1CCCC1,Ki,5.51 nM
